## AlphaSeq binding of Ab-14 heavy chain variants to a spike HR2 peptide

Target peptide (SARS-CoV-2 spike, HR2 region): PDVDLGDISGINAS

Ab-14 is the parent antibody, in scFv form: VH, then the linker GGGGSGGGGSGGGGS, then VL. The light chain is unchanged in all variants.
VH: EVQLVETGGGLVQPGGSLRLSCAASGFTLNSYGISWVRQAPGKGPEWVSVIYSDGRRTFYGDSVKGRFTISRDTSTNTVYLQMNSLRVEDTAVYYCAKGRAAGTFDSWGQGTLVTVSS
VL: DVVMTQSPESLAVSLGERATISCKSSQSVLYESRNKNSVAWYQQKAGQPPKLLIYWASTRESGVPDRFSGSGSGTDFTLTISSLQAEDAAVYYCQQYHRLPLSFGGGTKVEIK

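The starting antibody came from a phage panning campaign against this peptide. Variants in AAYL49 differ from the parent at up to three CDR positions; double and triple changes were sampled at random. AlphaSeq pools MATa yeast showing the antibodies with MATalpha yeast showing the peptide. Binding brings cells together so that they mate, and sequencing counts the barcode pairs among the diploids. The ratio of observed to expected reads was calibrated, replicate by replicate, on BCL2-family standards whose Kd was known from biolayer interferometry. There are three technical replicates.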

Each variant's VH is given in full.
Every variant below is changed at S31 of the VH (sequential numbering).
Values are log10 of the apparent Kd in nM; lower means stronger binding.
The mean shown is taken over the replicates in which the pair was detected.
Where no diploid with the target was found in any replicate, the entry reads "no signal": below detection, most likely a poor binder, though not proof of it.

The variant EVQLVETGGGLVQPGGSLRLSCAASGFTLNHYGESWVRQAPGKGPEWVSVIYSDGRRTFYGSSVKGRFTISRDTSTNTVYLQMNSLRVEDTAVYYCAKGRAAGTFDSWGQGTLVTVSS showed no signal (0 of 3 replicates). The variant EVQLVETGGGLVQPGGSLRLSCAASGFTLNLYGISWVRQAPGKGPEWVSVIFSVGRRTFYGDSVKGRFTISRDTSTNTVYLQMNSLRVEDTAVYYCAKGRAAGTFDSWGQGTLVTVSS showed 3.86 (1 of 3 replicates). For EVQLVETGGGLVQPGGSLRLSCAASGFTLNKYGISWVRQAPGKGPEWVSVIYFDGPRTFYGDSVKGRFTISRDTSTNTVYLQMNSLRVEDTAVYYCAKGRAAGTFDSWGQGTLVTVSS, the assay gave 4.22 (1 of 3 replicates). The variant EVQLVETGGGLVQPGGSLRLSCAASEFTLNQYGINWVRQAPGKGPEWVSVIYSDGRRTFYGDSVKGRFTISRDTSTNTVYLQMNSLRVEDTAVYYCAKGRAAGTFDSWGQGTLVTVSS showed 2.29 (3 of 3 replicates). For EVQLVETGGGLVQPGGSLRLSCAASGFTLNHYGISWVRQAPGKGPEWVSVIYSDGRRTNYGDSVKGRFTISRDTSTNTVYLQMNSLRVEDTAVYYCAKGRAFGTFDSWGQGTLVTVSS, the assay gave 4.07 (3 of 3 replicates). The variant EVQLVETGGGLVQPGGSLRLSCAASGFTLNEYGISWVRQAPGKGPEWVSVIYMDGRMTFYGDSVKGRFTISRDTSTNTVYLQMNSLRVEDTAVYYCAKGRAAGTFDSWGQGTLVTVSS showed no signal (0 of 3 replicates). For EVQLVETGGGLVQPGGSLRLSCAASGFTLNWYGISWVRQAPGKGPEWVSVIYSHGRRTFYGDSVKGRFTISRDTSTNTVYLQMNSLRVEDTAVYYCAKGRAAGTFDSWGQGTLVTVSS, the assay gave 3.09 (1 of 3 replicates).

The variant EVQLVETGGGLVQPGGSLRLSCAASGFTLNDYGISWVRQAPGKGPEWVSVIYSDGRRTFYGDSVKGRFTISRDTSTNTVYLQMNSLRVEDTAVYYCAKGRAAGTFKSWGQGTLVTVSS gave no signal (0 of 3 replicates). With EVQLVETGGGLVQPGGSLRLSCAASGFTLNAYGISWVRQAPGKGPEWVSVWYSDGRRTFYGDSVKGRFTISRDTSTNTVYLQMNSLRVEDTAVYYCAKGRAAGTFDSWGQGTLVTVSS the result was no signal (0 of 3 replicates). For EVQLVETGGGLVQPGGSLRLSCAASDFTLNGYGISWVRQAPGKGPEWVSVIYSDGRRTFYGDSVKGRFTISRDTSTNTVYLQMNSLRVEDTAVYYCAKGRAAGTFFSWGQGTLVTVSS, the assay gave no signal (0 of 3 replicates). The variant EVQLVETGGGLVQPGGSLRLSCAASGFTLNHNGISWVRQAPGKGPEWVSVIYSDGRRTRYGDSVKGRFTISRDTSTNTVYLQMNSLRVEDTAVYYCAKGRAAGTFDSWGQGTLVTVSS gave 4.27 (2 of 3 replicates). For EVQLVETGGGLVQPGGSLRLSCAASGFTLNKYGISWVRQAPGKGPEWVSVIYSDGRRTFYGDAVKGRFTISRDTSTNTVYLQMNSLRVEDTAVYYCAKGKAAGTFDSWGQGTLVTVSS, the assay gave 0.61 (3 of 3 replicates). The variant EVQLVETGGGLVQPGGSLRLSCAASHFTLNEYGISWVRQAPGKGPEWVSVMYSDGRRTFYGDSVKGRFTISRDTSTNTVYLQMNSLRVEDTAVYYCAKGRAAGTFDSWGQGTLVTVSS showed 2.07 (3 of 3 replicates). The variant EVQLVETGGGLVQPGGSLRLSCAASGFTLNYYGISWVRQAPGKGPEWVSVIYSDGRRQFWGDSVKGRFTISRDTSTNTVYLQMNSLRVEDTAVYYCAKGRAAGTFDSWGQGTLVTVSS gave no signal (0 of 3 replicates).

The variant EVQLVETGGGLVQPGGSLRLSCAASGFTLNYYGVSWVRQAPGKGPEWVSVIYSDGRRTFYGDSVKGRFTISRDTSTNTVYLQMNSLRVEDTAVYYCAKGRAAGTFDSWGQGTLVTVSS gave 2.29 (3 of 3 replicates).

The last 3 entries again:

| VH | mean, log10 nM | seen in |
|---|---|---|
| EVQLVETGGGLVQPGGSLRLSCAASHFTLNEYGISWVRQAPGKGPEWVSVMYSDGRRTFYGDSVKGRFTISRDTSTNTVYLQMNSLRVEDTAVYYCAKGRAAGTFDSWGQGTLVTVSS | 2.07 | 3/3 |
| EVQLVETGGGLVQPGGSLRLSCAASGFTLNYYGISWVRQAPGKGPEWVSVIYSDGRRQFWGDSVKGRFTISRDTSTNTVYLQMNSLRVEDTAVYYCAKGRAAGTFDSWGQGTLVTVSS | no signal | 0/3 |
| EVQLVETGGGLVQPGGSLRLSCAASGFTLNYYGVSWVRQAPGKGPEWVSVIYSDGRRTFYGDSVKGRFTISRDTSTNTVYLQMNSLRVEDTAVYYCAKGRAAGTFDSWGQGTLVTVSS | 2.29 | 3/3 |

For reference, the parent read 0.65 as the reference entry and 4.11 (one replicate of three) as a member of this library.
Background: pairings of library AAYL49 with three empty control strains gave a value in 15% of cases (median 4.06, 5th percentile 2.83). Values in that range, when seen in few replicates, are hard to tell from nonspecific mating.

From the AlphaSeq antibody data of Engelhart et al. 2022 (doi:10.1038/s41597-022-01779-4), copy in the FLAb collection.